# Paper PMC10762035, “Molecular basis of human trace amine-associated receptor 1 activation” (Nature Communications, 2024)
# Target: T1, hTA1 (Homo sapiens, UniProt Q96RJ0)
# T1 sequence (Q96RJ0 1-339): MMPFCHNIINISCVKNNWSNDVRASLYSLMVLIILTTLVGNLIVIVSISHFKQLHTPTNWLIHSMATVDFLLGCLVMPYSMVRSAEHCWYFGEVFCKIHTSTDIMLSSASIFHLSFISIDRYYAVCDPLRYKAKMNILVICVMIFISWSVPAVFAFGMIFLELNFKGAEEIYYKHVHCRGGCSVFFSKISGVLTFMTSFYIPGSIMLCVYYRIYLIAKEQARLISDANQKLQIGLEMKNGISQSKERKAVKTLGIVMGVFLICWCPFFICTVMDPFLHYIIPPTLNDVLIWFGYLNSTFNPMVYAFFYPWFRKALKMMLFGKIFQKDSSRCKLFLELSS
# Test: GloSensor cAMP accumulation assay, concentration response, wild-type hTA1 in transfected HEK293T cells;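 note: luminescence read after 30 min compound exposure at room temperature in cells preloaded with D-Luciferin, reflecting Gs-driven cAMP rise, efficacy scaled to the maximal β-PEA response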
# Assay type: cell-based
# Parameters: expressed in transfected cells; host or cells: HEK293T
# Conditions: log[Compound], M = -6; replicate wells
compound,measurement,value
CNC[C@H](O)c1ccc(O)c(O)c1 [epinephrine],Normalized Luminescence Counts for WT hTA1,0.177
